Experimental data as given in patent US7291628B2, “Treatment of cocaine abuse using N-substituted derivatives of morphinan” (McLean Hospital Corporation, priority 2001, dated 2007).

Tested on: brain opioid receptors
Conditions: baboon, intravenous, 1.09 mCi, SPECT

## [123-I] (−)-3-hydroxy-N-(E)-iodoallylmor [[123-I]-MCL-118]
  washout from all areas of the brain: almost completely washed out in 4 hours
OC, thalamus, brain stem, CC, PC
  time to high uptake in brain areas with the highest concentration of kappa and mu receptors: 15 to 30 min
